Laboratory results from patent US11160869B2 (priority 2019, dated 2021).

Assays:
Settings in all cases: mouse, in vivo
[1] = system: oxazolone-induced colitis
[2] = system: oxazolone-induced colitis; remark: listed apart in the source
[3] = system: NF-kB p65, TNF-α, IL-4, CD4, Foxp3

Nc1ccc(O)c(C(=O)O)c1 [5-ASA, 5-aminosalicylic acid]
colon weight/length ratio [1]: ameliorated | oxazolone-induced body weight loss [1]: significantly attenuated | histopathological severity score [2]: but not 5-ASA treatment | oxazolone-induced decrease in body weight [2]: attenuated | oxazolone-induced increase in colon weight [2]: ameliorated | colon expression of TNF-α, NF-kB, IL-4, CD4, Foxp3 by IHC [3]: did not elicit any significant effect
